# Screening results deposited in PubChem BioAssay by Broad Institute.
# This is a sample that favours compounds with a hit; in the whole collection about 1.3% have one here.
# INS-1E GSIS act: GLuc luminescence reporter in INS-1E cells, primary screen for activators of glucose-dependent secretion of insulin; 370,000 tested, 0.61% active; INS-1E GLuc reporter insulin secretion, 2-3 h; activation, % at 16.6 µM;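 active = lowest replicate activation of at least 40%, so every replicate reaches that level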;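 note: 0% = median of neutral control wells and 100% = median of IBMX positive control wells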
# UUG fidelity: modulators of start codon recognition fidelity in yeast; AID 602363; hit rate 0.13% among 350,000; activity score, % at 18.7 µM; S. cerevisiae UUG-firefly luciferase reporter, luminescence/redox ratio;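 active = replicate mean at a twofold rise or more, about +100% in these data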;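 note: firefly luciferase made from a UUG start codon reports start codon fidelity; reporter light over untreated wells divided by growth signal over untreated wells; some hits fall short of that in this replicate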
# SR-BI uptake up: SR-BI HDL lipid transfer activation; activation, % at 12.5 µM; AID 504775; 320,000 tested, 0.096% active; CHO ldlA[mSR-BI] cells, DiI-HDL uptake fluorescence, 3 h; 100 = double the neutral-control signal;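 active = mean replicate activation of at least 60% and every replicate at or above 60%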;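 note: 0% = median plate neutral-control signal and 100% = twice that signal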
#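 Material: SR-BI-overexpressing, LDLR-lacking CHO cells; schedule: compound exposure 3 h, 37 °C; reagent: DiI-labelled HDL at 10 µg/mL final; technique: bottom-read fluorescence, 550/595 nm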
# SR-BI DiI inh: inhibitors of mouse SR-BI mediated HDL lipid uptake. 320,000 tested, 0.96% active. AID 488896. Q61009. ldlA[mSR-BI] CHO cells, DiI-HDL uptake fluorescence, 3 h. inhibition, % at 12.5 µM;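 active = mean replicate inhibition of at least 70% and a set share of replicates each scoring 70 or more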;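 note: 0% = median of neutral control wells and 100% = median of positive control wells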
# An asterisk follows results filed as active; nt = not tested or not shown.
no. | INS-1E GSIS act | UUG fidelity | SR-BI uptake up | SR-BI DiI inh | Molecule
1 | nt | -33 | -128 | 128* | CCOC(=O)N1CCN(S(=O)(=O)c2ccc(C(=O)NNc3nc4ccc(Cl)cc4s3)cc2)CC1
2 | 55* | 2 | 11 | -11 | COC(=O)c1cc(S(=O)(=O)NCC2CCN(Cc3cc(C)ccc3C)CC2)c[nH]1
3 | 63* | -1 | -5 | 5 | Cc1nn(C(=O)c2cccc([N+](=O)[O-])c2)c(C)c1Cl
4 | 8 | 0 | nt | nt | CO[C@@H]1CN(C)C(=O)c2cc(NC(=O)C3CC3)ccc2OC[C@@H](C)N(C(=O)c2cnccn2)C[C@H]1C
5 | nt | nt | -102 | 102* | Cc1ccc(NC(=O)c2ccc(Nc3c([N+](=O)[O-])cc([N+](=O)[O-])cc3[N+](=O)[O-])cc2)cc1
6 | 19 | 4 | -30 | 30 | CC(=O)Nc1ccc(NC(=O)c2cc([N+](=O)[O-])cc([N+](=O)[O-])c2)cc1
7 | nt | -16 | -95 | 95* | Cc1ccc(NC(=O)c2ccc(N/N=C/c3cccc(O)c3)c([N+](=O)[O-])c2)cc1
8 | 6 | nt | 84* | -84 | C#CCOc1ccc(/C=N/O)cc1Cl
9 | 1 | -7 | nt | nt | CNC[C@@H]1Oc2cc(-c3ccccc3F)ccc2S(=O)(=O)N([C@@H](C)CO)C[C@H]1C
10 | 17 | 22 | nt | nt | Cc1ccc(S(=O)(=O)N(C)C[C@H]2Oc3ccc(NC(=O)C4CC4)cc3CC(=O)N([C@@H](C)CO)C[C@@H]2C)cc1
11 | 1 | nt | 19 | -19 | CCOc1cccc(CNCCO)c1OCc1ccc(Cl)cc1Cl
12 | nt | -19 | -35 | 35 | CCOc1cccc(CNn2cnnc2)c1OCc1ccccc1Cl
13 | nt | -12 | -81 | 81* | CCOc1cccc(CNc2ccc(O)cc2)c1OCc1ccccc1Cl
14 | nt | -11 | -80 | 80* | CCOc1cccc(CNc2ccc(O)cc2)c1OCc1ccc(Cl)cc1Cl
15 | -6 | -7 | -86 | 86* | CCOC(=O)c1cnc2cc(-c3ccc(Cl)cc3)nn2c1N
16 | -16 | nt | nt | nt | CCCC(=O)N1CCC2(CC1)CN(Cc1ccc(Cl)cc1)[C@H](CO)c1[nH]c3cc(OC)ccc3c12
17 | 11 | nt | 63* | -63 | C=CCN1C(=O)C(Cc2cccc(Cl)c2)SC1=Nc1ccc(C(=O)O)cc1 (stereo unspecified)
18 | -3 | -7 | 7 | -7 | C=CCN1C(=O)C(Cc2ccc(OC)cc2)SC1=Nc1ccc(C(=O)O)cc1 (stereo unspecified)
19 | nt | -12 | 18 | -18 | CCNc1nc(NC(C)C)nc(N(C#N)C(C)C(=O)N(C)C)n1 (stereo unspecified)
20 | 48* | -23 | -1 | 1 | CCNc1nc(NCC)nc(N(C#N)C(C)C)n1
21 | 89* | 11 | nt | nt | C=CCn1c(SCC#N)nc2sc(CC)cc2c1=O
22 | 48* | 0 | 49 | -49 | COc1cc(C2N(C)CCC3(OCCO3)C2(C)C)cc(OC)c1OC (stereo unspecified)
23 | 45* | 9 | 21 | -1 | COc1ccc(C2CNC(=O)C2)cc1OC1CCCC1 (stereo unspecified)
24 | 9 | 11 | -36 | 36 | COc1ccc(CCNS(=O)(=O)c2ccc(C3CNC(=O)C3)cc2)cc1OC (stereo unspecified)
25 | 6 | -12 | -38 | 38 | Cc1ccc(-c2nn3c(C)nnc3s2)cc1NC(=O)c1ccc(Br)o1
26 | 97 | -21 | -79 | 79* | Cc1ccc(-c2nn3c(C)nnc3s2)cc1NC(=O)c1ccc(-c2ccc(Cl)cc2Cl)o1
27 | nt | -21 | -73 | 73* | Cc1ccc(-c2nn3c(C)nnc3s2)cc1NC(=O)c1ccc(-c2cccc(Cl)c2)o1
28 | -13 | -8 | nt | nt | CN1c2ccc(Br)cc2[C@@H]2[C@@H](CCN2S(=O)(=O)c2cccc(F)c2)[C@@H]1CO
29 | 42* | -8 | 10 | -10 | CCOC(=O)N1CCN(S(=O)(=O)c2ccc3c4c(cccc24)C(=O)N3)CC1
30 | 10 | -2 | 8 | -8 | CN1CCN(S(=O)(=O)c2ccc3c4c(cccc24)C(=O)N3)CC1

# SR-BI uptake up: hit marks shown above.
no. | INS-1E GSIS act | UUG fidelity | SR-BI uptake up | SR-BI DiI inh | Molecule
8 | 6 | nt | 84* | -84 | C#CCOc1ccc(/C=N/O)cc1Cl
17 | 11 | nt | 63* | -63 | C=CCN1C(=O)C(Cc2cccc(Cl)c2)SC1=Nc1ccc(C(=O)O)cc1 (stereo unspecified)

# Next section.
no. | INS-1E GSIS act | UUG fidelity | SR-BI uptake up | SR-BI DiI inh | Molecule
31 | 6 | -12 | 10 | -10 | CCc1nnc(NC(=O)c2nc(S(=O)(=O)Cc3ccccc3)ncc2Cl)s1
32 | 42 | 1 | 4 | -4 | O=C(NCc1ccccc1)c1nc(S(=O)(=O)Cc2ccccc2)ncc1Cl
33 | 63* | -23 | 34 | -34 | CCS(=O)(=O)c1ncc(Cl)c(C(=O)Nc2ccc(C)cc2)n1
34 | 59* | -15 | 29 | -29 | COc1ccc(CNC(=O)c2nc(S(=O)(=O)Cc3ccccc3)ncc2Cl)cc1
35 | 72* | -1 | -23 | 23 | CCC1CCCCN1S(=O)(=O)c1ccc(NC(=O)c2nc(S(C)(=O)=O)ncc2Cl)cc1 (stereo unspecified)
36 | -7 | -16 | 64* | -64 | CCc1nnc(NC(=O)c2nc(S(=O)(=O)Cc3ccc(C)cc3)ncc2Cl)s1
37 | -6 | 5 | nt | nt | COc1ccc(S(=O)(=O)N(C)C[C@H]2OCCCC[C@@H](C)Oc3ccc(NS(C)(=O)=O)cc3C(=O)N([C@@H](C)CO)C[C@@H]2C)cc1
38 | 0 | -1 | nt | nt | COC(=O)C[C@@H]1CC[C@@H]2[C@H](COc3ccc(NC(=O)Nc4ccc(C#N)cc4)cc3C(=O)N2C)O1
39 | 9 | 13 | nt | nt | C[C@H]1CN([C@@H](C)CO)C(=O)c2cc(NC(=O)Nc3ccccc3)ccc2O[C@@H]1CN(C)S(C)(=O)=O
40 | 5 | -13 | nt | nt | CN(C)CC(=O)N[C@H]1C=C[C@@H](CC(=O)NCc2ccc(Cl)cc2)O[C@H]1CO
41 | 11 | -2 | nt | nt | COC(=O)[C@H]1[C@H](CO)[C@H]2Cn3c(ccc(C4=CCCCC4)c3=O)[C@H]2N1C(=O)C1CCC1
42 | 60* | 7 | 14 | -14 | CC(=O)Nc1ccc(NC(=O)c2nc(S(=O)(=O)Cc3ccccc3)ncc2Cl)cc1
43 | 68 | nt | -93 | 93* | CS(=O)(=O)c1ncc(Cl)c(C(=O)Nc2ccc3ccccc3c2)n1
44 | 19 | nt | nt | nt | CCS(=O)(=O)N1CCC2(CC1)CN(C(=O)CN1CCOCC1)[C@@H](CO)c1c2c2ccc(OC)cc2n1C
45 | 12 | 2 | -77 | 77* | COc1ccc(OC)c(NC(=O)CCCNC(=O)Cn2cnc3sc(C)c(C)c3c2=O)c1
46 | -16 | nt | nt | nt | O=C(C[C@H]1CC[C@H]2[C@@H](COC[C@H](O)CN2Cc2ccc(Oc3ccccc3)cc2)O1)N1CCc2ccccc2C1
47 | 0 | -16 | -75 | 75* | COc1ccc(-c2csc(NC(=O)CCn3cnc4ccccc4c3=O)n2)cc1OC
48 | 3 | -9 | -77 | 77* | COc1cccc(NC(=O)Nc2nc(-c3ccc(OC)c(OC)c3)cs2)c1
49 | nt | -43 | -4 | 4 | COc1ccc(-c2csc(NC(C)=O)n2)cc1OC
50 | -2 | -12 | -23 | 23 | COc1ccc(-c2csc(NC(=O)CCCc3nc4ccccc4c(=O)[nH]3)n2)cc1OC
51 | nt | -5 | -72 | 72* | COc1ccc(-c2csc(Nc3ncccc3C)n2)cc1OC
52 | 128* | nt | -79 | 79* | O=C(Nc1cccc(Cl)c1)Nc1nc(-c2ccc(Cl)cc2)cs1
53 | -1 | -2 | nt | nt | COc1cccc(S(=O)(=O)N[C@H]2CC[C@@H](CC(=O)NCc3ccc(F)cc3)O[C@H]2CO)c1

# A draw from above in order of count of non-hydrogen atoms, falling.
no. | INS-1E GSIS act | UUG fidelity | SR-BI uptake up | SR-BI DiI inh | Molecule
37 | -6 | 5 | nt | nt | COc1ccc(S(=O)(=O)N(C)C[C@H]2OCCCC[C@@H](C)Oc3ccc(NS(C)(=O)=O)cc3C(=O)N([C@@H](C)CO)C[C@@H]2C)cc1
41 | 11 | -2 | nt | nt | COC(=O)[C@H]1[C@H](CO)[C@H]2Cn3c(ccc(C4=CCCCC4)c3=O)[C@H]2N1C(=O)C1CCC1
32 | 42 | 1 | 4 | -4 | O=C(NCc1ccccc1)c1nc(S(=O)(=O)Cc2ccccc2)ncc1Cl
